Laboratory results: PubChem BioAssay AID652189 (Johns Hopkins Ion Channel Center, 2013)
This is a selection; strong and weak results do not stand in their true shares. The source made the active and inactive calls.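 The calls were made as follows: active = mean duplicate percent inhibition, scaled so buffer wells are 0 and the reference blocker 100, over three buffer SD above buffer mean; inactive = the rest.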

The chains behind the UniProt entries cited, without tags or fusion partners. Where a name states a change or a piece, a line headed by the entry shows the natural chain unless it says otherwise.
UniProt Q8BHY3: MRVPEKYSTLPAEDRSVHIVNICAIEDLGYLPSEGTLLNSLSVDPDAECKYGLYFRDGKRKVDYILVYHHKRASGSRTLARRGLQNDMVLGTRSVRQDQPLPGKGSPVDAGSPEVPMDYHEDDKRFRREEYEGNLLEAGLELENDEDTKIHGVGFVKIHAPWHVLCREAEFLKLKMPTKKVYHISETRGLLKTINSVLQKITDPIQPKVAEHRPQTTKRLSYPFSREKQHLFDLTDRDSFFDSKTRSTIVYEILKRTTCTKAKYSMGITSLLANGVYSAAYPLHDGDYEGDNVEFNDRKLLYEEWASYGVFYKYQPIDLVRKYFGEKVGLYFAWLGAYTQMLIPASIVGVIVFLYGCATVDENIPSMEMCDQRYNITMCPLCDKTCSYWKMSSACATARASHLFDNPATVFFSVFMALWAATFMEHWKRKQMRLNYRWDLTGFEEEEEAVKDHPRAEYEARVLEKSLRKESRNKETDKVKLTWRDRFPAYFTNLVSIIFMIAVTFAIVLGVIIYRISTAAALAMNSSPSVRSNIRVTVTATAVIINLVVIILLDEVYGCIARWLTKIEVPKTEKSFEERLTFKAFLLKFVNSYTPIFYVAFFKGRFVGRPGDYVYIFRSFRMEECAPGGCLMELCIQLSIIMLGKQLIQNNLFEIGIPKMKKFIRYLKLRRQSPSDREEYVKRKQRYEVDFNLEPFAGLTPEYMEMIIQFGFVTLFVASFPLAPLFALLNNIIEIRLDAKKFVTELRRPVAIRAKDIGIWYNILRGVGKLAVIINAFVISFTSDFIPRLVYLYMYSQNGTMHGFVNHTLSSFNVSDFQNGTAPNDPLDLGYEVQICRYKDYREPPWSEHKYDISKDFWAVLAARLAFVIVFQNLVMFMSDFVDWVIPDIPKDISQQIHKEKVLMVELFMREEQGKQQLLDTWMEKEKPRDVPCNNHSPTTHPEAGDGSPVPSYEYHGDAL

Molecular target: Anoctamin-1 (Mus musculus) (UniProt Q8BHY3)
Assay: TMEM16A chloride channel inhibitors, confirmation, cell-based, re-confirmation (AID 652189)
Details: HEK293 TMEM16A/YFP-H148Q, iodide quench fluorescence; at 10 µM; hits give high values; ionomycin added to raise cell calcium

Compound | inhibition
CCc1nc2c(n1)c1c(non1O)c1c2no[n+]1[O-] | active: 17.5%
